Data published in patent US11912701B2, “Protein kinase inhibitors for promoting liver regeneration or reducing or preventing hepatocyte death” (HEPAREGENIX GMBH, priority 2018, dated 2024).

Sequences of proteins named here, by UniProt entry; tags and fusion partners are left off. Residues count along the entry.
UniProt P45983, 1-384 isoform P45983-2: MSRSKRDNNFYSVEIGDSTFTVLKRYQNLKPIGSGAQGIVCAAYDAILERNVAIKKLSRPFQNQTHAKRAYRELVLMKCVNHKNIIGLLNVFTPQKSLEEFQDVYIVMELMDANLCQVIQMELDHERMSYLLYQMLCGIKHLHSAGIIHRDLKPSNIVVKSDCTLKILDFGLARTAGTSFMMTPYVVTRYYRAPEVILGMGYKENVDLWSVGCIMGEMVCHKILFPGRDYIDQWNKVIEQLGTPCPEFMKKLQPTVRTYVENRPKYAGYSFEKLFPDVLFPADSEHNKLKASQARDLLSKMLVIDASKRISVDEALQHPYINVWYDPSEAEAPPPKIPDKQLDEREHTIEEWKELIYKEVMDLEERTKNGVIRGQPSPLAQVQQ
UniProt P15056, whole entry, species assumed: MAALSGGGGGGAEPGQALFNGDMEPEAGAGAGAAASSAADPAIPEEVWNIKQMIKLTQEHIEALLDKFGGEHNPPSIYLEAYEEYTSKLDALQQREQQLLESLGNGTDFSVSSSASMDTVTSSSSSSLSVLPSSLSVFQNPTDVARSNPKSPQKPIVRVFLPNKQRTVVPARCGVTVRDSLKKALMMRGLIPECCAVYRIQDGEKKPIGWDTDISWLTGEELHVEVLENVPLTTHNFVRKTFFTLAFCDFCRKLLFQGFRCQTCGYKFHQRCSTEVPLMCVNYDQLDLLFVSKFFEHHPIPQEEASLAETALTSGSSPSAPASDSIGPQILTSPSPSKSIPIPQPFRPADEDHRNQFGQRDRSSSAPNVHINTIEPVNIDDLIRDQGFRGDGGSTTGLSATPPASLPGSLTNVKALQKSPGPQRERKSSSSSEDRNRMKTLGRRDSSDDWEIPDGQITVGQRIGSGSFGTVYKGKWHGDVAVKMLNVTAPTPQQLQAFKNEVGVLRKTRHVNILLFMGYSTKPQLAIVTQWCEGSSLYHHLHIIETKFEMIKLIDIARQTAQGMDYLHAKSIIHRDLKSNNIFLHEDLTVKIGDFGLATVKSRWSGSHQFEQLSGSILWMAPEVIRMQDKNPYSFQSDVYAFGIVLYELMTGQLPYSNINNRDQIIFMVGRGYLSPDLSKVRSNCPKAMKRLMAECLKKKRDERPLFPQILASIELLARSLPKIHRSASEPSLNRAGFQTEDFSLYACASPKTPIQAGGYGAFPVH

Experiments:
JNK1 [1] = biological target: T1, JNK1 (Homo sapiens, UniProt P45983); experiment: KINOMEscan competition binding assay, JNK1; set-up: M1/Q384; host or cells: HEK-293; details: ratio PoC (off-target)/PoC (MKK4)
MKK7 = biological target: T2, MKK7 (Homo sapiens, UniProt O14733); experiment: KINOMEscan competition binding assay, MKK7; details: ratio PoC (off-target)/PoC (MKK4)
T2 construct: M1/R419; host or cells: HEK-293
T2 sequence (O14733 1-419): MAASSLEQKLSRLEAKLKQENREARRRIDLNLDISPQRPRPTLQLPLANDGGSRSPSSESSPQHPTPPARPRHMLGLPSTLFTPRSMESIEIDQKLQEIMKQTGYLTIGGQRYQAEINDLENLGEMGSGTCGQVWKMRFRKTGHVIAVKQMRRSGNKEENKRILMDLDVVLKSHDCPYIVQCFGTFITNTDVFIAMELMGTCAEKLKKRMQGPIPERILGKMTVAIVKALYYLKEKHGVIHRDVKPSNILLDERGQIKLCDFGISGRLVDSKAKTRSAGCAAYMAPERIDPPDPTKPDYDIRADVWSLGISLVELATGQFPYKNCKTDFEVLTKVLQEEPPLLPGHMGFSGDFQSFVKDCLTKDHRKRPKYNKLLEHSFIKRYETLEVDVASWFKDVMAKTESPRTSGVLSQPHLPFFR

BRaf = biological target: T3, BRaf (Homo sapiens, UniProt P15056); experiment: KINOMEscan competition binding assay, BRaf; details: ratio PoC (off-target)/PoC (MKK4)
T3 construct: purchased ProQinase GmbH, Freiburg, Germany (33PanQinase Assay Service)

JNK1 [2] = biological target: T1, JNK1; experiment: 33PanQinase enzyme assay, JNK1; assay type: biochemical; set-up: purchased ProQinase GmbH, Freiburg, Germany (33PanQinase Assay Service); details: ratio IC50(JNK1)/IC50(MKK4)

O=C(c1cccc(NS(=O)(=O)Cc2ccccc2)c1F)c1c[nH]c2ncc(-c3cc4c(cc3Cl)OCCO4)cc12 [Example 127, N-(3-(5-(7-chloro-2,3-dihydrobenzo[b][1,4]dioxin-6-yl)-1H-pyrrolo[2,3-b]pyridine-3-carbonyl)-2-fluorophenyl)-1-phenylmethanesulfonamide]
selectivity based on % Ctrl @100 nM vs. JNK1 (JNK1 [1]): ++ (100 ≥ ratio > 10)
selectivity based on % Ctrl @100 nM vs. MKK7 (MKK7): ++ (100 ≥ ratio > 10)
selectivity based on % Ctrl @100 nM vs. Braf (BRaf): ++ (100 ≥ ratio > 10)
Selectivity JNK1, IC50(off-target)/IC50(MKK4) (JNK1 [2]): + (10 ≥ IC50(off-target)/IC50(MKK4) > 3)
